Results taken from patent US7847063B2 (Sanwa Kagaku Kenkyusho Co., Ltd., priority 2003, dated 2010).

Chains of the proteins cited; added tags and fusions are not shown. Residues count along the entry.
UniProt P43220, 24-463: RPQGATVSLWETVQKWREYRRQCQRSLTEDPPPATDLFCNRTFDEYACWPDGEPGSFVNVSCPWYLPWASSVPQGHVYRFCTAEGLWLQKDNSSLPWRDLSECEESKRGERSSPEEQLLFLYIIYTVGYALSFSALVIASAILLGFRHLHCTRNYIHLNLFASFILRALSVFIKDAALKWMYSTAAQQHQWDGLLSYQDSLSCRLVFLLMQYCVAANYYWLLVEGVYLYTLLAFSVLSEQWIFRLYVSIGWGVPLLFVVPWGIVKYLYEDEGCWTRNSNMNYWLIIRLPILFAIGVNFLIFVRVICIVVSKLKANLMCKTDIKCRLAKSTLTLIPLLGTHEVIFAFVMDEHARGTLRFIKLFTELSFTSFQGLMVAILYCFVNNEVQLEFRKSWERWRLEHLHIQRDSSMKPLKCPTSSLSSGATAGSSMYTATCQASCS

Target: T1, human GLP-1 receptor (Homo sapiens, UniProt P43220)
T1 construct: expressed in transfected cells; host or cells: Chinese hamster ovary CHO-K1 cells
Experiment: Cyclic AMP production activity in CHO-K1 cells expressing human GLP-1 receptors
Assay type: cell-based
Details: compared with native GLP-1; 37° C. 30 min; FIG. 7
Procedure: 10 μl of 5N hydrochloric acid was added to the buffer to stop the incubation.

With “[Ser^8]-GLP-1 (7-36 amide) [[Ser^8]-GLP-1 (7-36amide), reference compound]” the “cyclic AMP production activity” value was “same level of cyclic AMP production activity as native GLP-1”.
